Results published in ChEMBL document CHEMBL1155685, “Antiproliferative triterpene saponins from Trevesia palmata” (J Nat Prod, 2000).

System: HEK293
Test: Antiproliferative activity against HEK293 cells assessed as reduction of cell growth after 72 hrs by MTT method
Type: cell-based, Homo sapiens

Compound `Sc1ncnc2nc[nH]c12` [MERCAPTOPURINE ANHYDROUS] has an IC50 of 7 nM.
